Test results from ChEMBL document CHEMBL6153085, “Discovery of N-(1,2,4-Thiadiazol-5-yl)benzo[b]oxepine-4-carboxamide Derivatives as Novel Antiresistance Androgen Receptor Antagonists” (J Med Chem, 2025).

How the values were obtained:
[1] = Half life in rat at 5 mg/kg, po; settings: in vivo
in vivo [2] = settings: rat, po, 5 mg/kg
in vivo [3] = settings: rat, po, 5 mg/kg; remark: listed apart in the source
in vivo [4] = settings: rat, iv, 1 mg/kg
in vivo [5] = settings: rat, po, 5 mg/kg; remark: listed apart in the source

Compound: O=C(Nc1nc(CN2CCOCC2)ns1)C1=Cc2cc(Cl)ccc2OC=C1
- half-life [1]: 3.54 h
- Cmax (in vivo [2]): 148 ng/mL
- AUC(0-inf) (in vivo [3]): 833 ng·h/mL
- AUC(0-inf) (in vivo [4]): 441 ng·h/mL
- bioavailability (in vivo [5]): 30.6%
